Values belong to the compound of their own block, whether it stands above or below them.
Experiments:
[1] = molecular target: T1, Stimulator of interferon genes protein (Mus musculus) (UniProt Q3TBT3); conditions: dose 50.0 µM, time 45.0 min
T1 sequence (whole entry): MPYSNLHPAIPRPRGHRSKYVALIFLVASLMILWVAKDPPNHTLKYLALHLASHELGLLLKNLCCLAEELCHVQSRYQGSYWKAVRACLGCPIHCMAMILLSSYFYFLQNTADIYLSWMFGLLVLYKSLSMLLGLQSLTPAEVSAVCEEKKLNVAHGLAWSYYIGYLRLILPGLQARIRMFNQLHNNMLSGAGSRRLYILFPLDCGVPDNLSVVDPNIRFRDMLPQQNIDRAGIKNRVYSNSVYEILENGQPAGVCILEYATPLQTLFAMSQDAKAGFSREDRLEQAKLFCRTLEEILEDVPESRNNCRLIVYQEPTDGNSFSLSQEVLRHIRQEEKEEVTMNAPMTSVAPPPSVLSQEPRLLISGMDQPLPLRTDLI

The chains behind the UniProt entries cited, without tags or fusion partners.
UniProt Q86WV6, whole entry, looked up, stated change not applied: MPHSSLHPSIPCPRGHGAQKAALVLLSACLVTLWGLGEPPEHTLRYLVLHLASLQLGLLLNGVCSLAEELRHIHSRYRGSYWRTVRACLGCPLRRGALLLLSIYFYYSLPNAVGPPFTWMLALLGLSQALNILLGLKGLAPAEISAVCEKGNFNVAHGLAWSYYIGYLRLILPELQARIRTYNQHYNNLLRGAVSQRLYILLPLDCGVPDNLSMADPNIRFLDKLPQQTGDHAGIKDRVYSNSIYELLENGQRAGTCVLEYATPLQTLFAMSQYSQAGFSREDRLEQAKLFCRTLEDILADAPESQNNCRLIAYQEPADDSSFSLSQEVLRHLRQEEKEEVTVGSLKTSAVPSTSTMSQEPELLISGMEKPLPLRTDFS
UniProt Q86WV6, whole entry R293Q: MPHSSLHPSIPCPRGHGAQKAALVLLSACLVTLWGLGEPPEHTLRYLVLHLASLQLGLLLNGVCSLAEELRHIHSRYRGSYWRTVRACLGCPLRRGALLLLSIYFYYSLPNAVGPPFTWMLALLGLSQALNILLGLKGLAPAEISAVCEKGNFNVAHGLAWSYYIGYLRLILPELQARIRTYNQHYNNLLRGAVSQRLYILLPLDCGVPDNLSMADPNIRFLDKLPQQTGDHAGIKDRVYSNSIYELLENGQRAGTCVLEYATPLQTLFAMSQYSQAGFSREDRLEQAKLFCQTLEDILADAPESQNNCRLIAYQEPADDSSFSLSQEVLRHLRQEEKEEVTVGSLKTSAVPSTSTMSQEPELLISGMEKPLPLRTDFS
UniProt Q86WV6, whole entry G230A/R293Q: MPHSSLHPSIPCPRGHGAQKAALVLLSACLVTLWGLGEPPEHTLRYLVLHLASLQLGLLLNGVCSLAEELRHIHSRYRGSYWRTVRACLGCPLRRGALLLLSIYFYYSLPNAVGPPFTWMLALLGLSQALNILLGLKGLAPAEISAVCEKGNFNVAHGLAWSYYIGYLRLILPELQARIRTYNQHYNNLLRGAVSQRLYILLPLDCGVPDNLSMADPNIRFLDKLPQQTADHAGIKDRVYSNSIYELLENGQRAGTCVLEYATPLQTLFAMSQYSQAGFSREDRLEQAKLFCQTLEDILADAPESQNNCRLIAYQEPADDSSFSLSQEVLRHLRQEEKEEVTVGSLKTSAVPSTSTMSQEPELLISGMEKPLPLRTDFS

[2] = system: Stimulator of interferon genes protein (Homo sapiens), Q86WV6 [UNDEFINED MUTATION]; conditions: filed as agonist, dose 200.0 µM
[3] = system: Stimulator of interferon genes protein (Homo sapiens), Q86WV6 [R293Q]; conditions: dose 50.0 µM, time 45.0 min
[4] = molecular target: T2, Stimulator of interferon genes protein (Homo sapiens, UniProt Q86WV6); conditions: dose 50.0 µM, time 45.0 min
[5] = system: Stimulator of interferon genes protein (Homo sapiens), Q86WV6 [UNDEFINED MUTATION]; conditions: filed as agonist, dose 200.0 µM; remark: listed apart in the source
[6] = system: Stimulator of interferon genes protein (Homo sapiens), Q86WV6 [UNDEFINED MUTATION]; conditions: dose 50.0 µM, time 45.0 min
[7] = system: Stimulator of interferon genes protein (Homo sapiens), Q86WV6 [G230A,R293Q]; conditions: dose 50.0 µM, time 45.0 min
[8] = molecular target: T2, Stimulator of interferon genes protein
[9] = system: Stimulator of interferon genes protein (Homo sapiens), Q86WV6 [UNDEFINED MUTATION]; conditions: filed as agonist, dose 200.0 µM; remark: listed apart in the source
[10] = Clearance in female C57BL/6 mouse at 10 mg/kg, iv measured up to 24 hrs by LC-MS/MS analysis; conditions: in vivo
in vivo [11] = conditions: female, C57BL/6, mouse, iv, 10 mg/kg
B16-F10 [12] = test: animal or person; conditions: Mus musculus, B16-F10, read-out: TGI
in vivo [13] = conditions: female, C57BL/6, mouse, iv, 10 mg/kg; remark: listed apart in the source
B16-F10 [14] = conditions: Mus musculus, dose 5-10 mg/kg, route iv, time 12.0 day
in vivo [15] = conditions: female, C57BL/6, mouse, iv, 10 mg/kg; remark: listed apart in the source
B16-F10 [16] = test: animal or person; conditions: Mus musculus, B16-F10, read-out: TGI; remark: listed apart in the source
in vivo [17] = conditions: female, C57BL/6, mouse, iv, 10 mg/kg; remark: listed apart in the source

ΔTm [6]: 4.5 °C
SMILES: Cc1cc(NC(=O)c2ccc(-n3cnc(F)c3)nn2)c(C(=O)O)cc1F

ΔTm [6]: 4 °C
SMILES: O=C(Nc1cc(Br)c(OC2CC2)cc1C(=O)O)c1ccc(-n2cnc(F)c2)nn1

ΔTm [6]: 4 °C
SMILES: C#Cc1cc(NC(=O)c2ccc(-n3cnc(Br)c3)nn2)c(C(=O)O)cc1F

ΔTm [1]: 9 °C
ΔTm [7]: 24 °C
deltaH [2]: -3.84 kcal/mol
ΔTm [3]: 12.5 °C
Kd [8]: 0.216 µM
ΔTm [4]: 11 °C
deltaG [9]: -9.09 kcal/mol
-TdeltaS [5]: -5.26 kcal/mol
ΔTm [6]: 11 °C
SMILES: O=C(Nc1cc(Cl)c(F)cc1C(=O)O)c1ccc(-n2cnc(F)c2)nn1

ΔTm [6]: 6.5 °C
SMILES: CCOc1cc(C(=O)O)c(NC(=O)c2ccc(-n3cnc(F)c3)nn2)cc1Br

ΔTm [6]: 15.5 °C
SMILES: C#Cc1cc(NC(=O)c2ccc(-n3ccnc3)nn2)c(C(=O)O)cc1F

ΔTm [6]: 3 °C
SMILES: CCc1cc(C(=O)O)c(NC(=O)c2ccc(-n3cnc(F)c3)nn2)cc1F

Further lines, the compound ahead of its results:

SMILES: O=C(Nc1cc(F)c(F)cc1C(=O)O)c1ccc(-n2ccnc2)nn1
ΔTm [1]: 7.5 °C
deltaH [2]: 2.1 kcal/mol
ΔTm [3]: 8 °C
ΔTm [4]: 7 °C
-TdeltaS [5]: -10.7 kcal/mol

SMILES: C=C(C)c1cc(NC(=O)c2ccc(-n3cnc(F)c3)nn2)c(C(=O)O)cc1F
ΔTm [6]: 0.5 °C

SMILES: C=Cc1cc(NC(=O)c2ccc(-n3cnc(F)c3)nn2)c(C(=O)O)cc1F
ΔTm [6]: 8 °C

SMILES: C#Cc1cc(NC(=O)c2ccc(-n3cnc(F)c3)nn2)c(C(=O)O)cc1Br
ΔTm [6]: 8.5 °C

SMILES: CC#Cc1cc(NC(=O)c2ccc(-n3cnc(F)c3)nn2)c(C(=O)O)cc1F
ΔTm [6]: 8.5 °C

SMILES: C=CCc1cc(NC(=O)c2ccc(-n3cnc(F)c3)nn2)c(C(=O)O)cc1F
ΔTm [6]: 1.5 °C

SMILES: C#Cc1cc(NC(=O)c2ccc(-n3cnc(F)c3)nn2)c(C(=O)[O-])cc1F.[Li+]
clearance at 24 h [10]: 11.2 mL/min/kg
AUC(0-t) at 24 h (in vivo [11]): 14100 ng·h/mL
inhibition in vivo at 5 mg/kg (B16-F10 [12]): 51.2%
half-life at 24 h (in vivo [13]): 7.65 h
inhibition (B16-F10 [14]): Active; Compound Exceeded The Efficacy Of Sr-# Treatment Group
Vd at 24 h (in vivo [15]): 3.5 L/kg
inhibition in vivo at 10 mg/kg (B16-F10 [16]): 74.5%
AUC(0-inf) at 24 h (in vivo [17]): 14900 ng·h/mL

SMILES: O=C(Nc1cc(Br)c(F)cc1C(=O)O)c1ccc(-n2cnc(F)c2)nn1
ΔTm [1]: 7.5 °C
ΔTm [7]: 29.5 °C
deltaH [2]: -4.18 kcal/mol
ΔTm [3]: 13.5 °C
Kd [8]: 0.279 µM
ΔTm [4]: 11.5 °C
deltaG [9]: -8.94 kcal/mol
-TdeltaS [5]: -4.76 kcal/mol
ΔTm [6]: 12.5 °C

SMILES: C#Cc1cc(NC(=O)c2ccc(-n3cnc(Cl)c3)nn2)c(C(=O)O)cc1F
ΔTm [6]: 9 °C

SMILES: C#Cc1cc(NC(=O)c2ccc(-n3cnc(C)c3)nn2)c(C(=O)O)cc1F
ΔTm [6]: 8 °C

SMILES: C#Cc1cc(NC(=O)c2ccc(-n3cnc(C(F)(F)F)c3)nn2)c(C(=O)O)cc1F
ΔTm [6]: 10 °C

SMILES: O=C(Nc1cc(F)c(F)cc1C(=O)O)c1ccc(-n2cnc(F)c2)nn1
ΔTm [6]: 5.5 °C

SMILES: O=C(Nc1cc(C#CC2CC2)c(F)cc1C(=O)O)c1ccc(-n2cnc(F)c2)nn1
ΔTm [6]: 1 °C

SMILES: CCc1cc(NC(=O)c2ccc(-n3cnc(F)c3)nn2)c(C(=O)O)cc1F
ΔTm [6]: 1.5 °C

SMILES: O=C(Nc1cc(C2CC2)c(F)cc1C(=O)O)c1ccc(-n2cnc(F)c2)nn1
ΔTm [6]: 2 °C

SMILES: COc1cc(C(=O)O)c(NC(=O)c2ccc(-n3cnc(F)c3)nn2)cc1Br
ΔTm [6]: 13 °C

Source: ChEMBL document CHEMBL6177999, “Discovery of 3-(Fluoro-imidazolyl)pyridazine Derivatives as Potent STING Agonists with Antitumor Activity” (J Med Chem, 2025)
